# According to patent publication US9174988B2, “Small molecule inhibitors of hepatitis C virus” (TRUSTEES OF BOSTON UNIVERSITY, priority 2009, dated 2015):
# Tested on: Huh-7.5 cells
# Test: XTT cytotoxicity assay (CC50)
# Excerpt: This assay utilized the compound XTT (2,3-bis[2-methoxy-4-nitro-5-sulfophenyl]-2H-tetrazolium-5-carboxyanilide inner salt) with addition of an electron coupling agent phenazine methosulfate (PMS) to measure mitochondrial dehydrogenases activity in living cells, e.g., Huh-7.5 cells. Dehydrogenases in mitochondria of living cells cleave the tetrazolium ring of XTT changing the color of the solution from clear to orange. As designed, compounds that reduce cell viability will reduce activity of the mitochondrial dehydrogenases, and leave a decreased orange color in solution.
# The Huh-7.5 cell line was routinely cultured in 15-cm dishes at 37 degrees C. and 95% relative humidity (RH). […]
# Prior to the start of the assay 8000 cells in 100 microliter volume of colorless growth media were dispensed into each well of 96-well tissue culture-treated microtiter plates and incubated overnight at 37 degrees C. […] After equilibrating the plates to room temperature for 10 minutes, optical density at 450 nm and […] was measured on Biotek plate reader.
# The percent inhibition for each compound was calculated as follows: % Inhibition=((DMSO Control−Test compound)/DMSO Control)*100, wherein Test compound is defined as wells containing test compound. […]
smiles,measurement,setting,value
COC(=O)C1=C(C(=O)OC)C2N(CCOCCN3c4ccccc4[C@]45CCC(=O)N(Cc6ccccc6)C4=NC(C(=O)OC)=C(C(=O)OC)C35)c3ccccc3[C@@]23CCC(=O)N(Cc2ccccc2)C3=N1 (some centres unmarked),CC50,Table 3,> 100 µM
same,CC50,hepatoma Huh7-5 cells,< 100 µM
